Measurements as given in PubChem BioAssay (NCI).
This is a selection; strong and weak results do not stand in their true shares.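 Cell lines were cultured in 96-well plates, exposed to a single compound concentration, and assessed for percent growth 48 hours later.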 Activity calls are given as the source filed them. Rule for the calls: active = growth percent below 10; inactive = the rest.

Legend:
Experiment in all cases: NCI-60 one-dose screen, 48 h (100 = growth as untreated, 0 = no growth, -100 = all killed)
Conditions in all cases: 10 µM unless noted
SK-MEL-2 melanoma = tested on: SK-MEL-2 melanoma
EKVX NSCLC = tested on: EKVX NSCLC
SN12C renal = tested on: SN12C renal
UO-31 renal = tested on: UO-31 renal
TK-10 renal = tested on: TK-10 renal
ACHN renal = tested on: ACHN renal
CAKI-1 renal = tested on: CAKI-1 renal
A498 renal = tested on: A498 renal
HL-60(TB) leukemia = tested on: HL-60(TB) leukemia
CCRF-CEM leukemia = tested on: CCRF-CEM leukemia
MOLT-4 leukemia = tested on: MOLT-4 leukemia
SR leukemia = tested on: SR leukemia
RPMI-8226 leukemia = tested on: RPMI-8226 leukemia
OVCAR-8 ovarian = tested on: OVCAR-8 ovarian
OVCAR-5 ovarian = tested on: OVCAR-5 ovarian
OVCAR-4 ovarian = tested on: OVCAR-4 ovarian
SK-OV-3 ovarian = tested on: SK-OV-3 ovarian
IGROV1 ovarian = tested on: IGROV1 ovarian
OVCAR-3 ovarian = tested on: OVCAR-3 ovarian
HS 578T breast = tested on: HS 578T breast

Measured: growth

Fc1cccc(CNCCCl)c1
inactive: SK-MEL-2 melanoma 114% | EKVX NSCLC 112% | SN12C renal 125% | UO-31 renal 102% | TK-10 renal 110% | ACHN renal 122% | CAKI-1 renal 102% | A498 renal 129% | HL-60(TB) leukemia 111% | CCRF-CEM leukemia 80% | MOLT-4 leukemia 104% | SR leukemia 111% | RPMI-8226 leukemia 99.4% | OVCAR-8 ovarian 109% | OVCAR-5 ovarian 108% | OVCAR-4 ovarian 107% | SK-OV-3 ovarian 111% | IGROV1 ovarian 112% | OVCAR-3 ovarian 99.2% | HS 578T breast 123%

O=[N+]([O-])c1cc2cn[nH]c2cc1[N+](=O)[O-]
inactive: SK-MEL-2 melanoma 118% | EKVX NSCLC 87.3% | SN12C renal 90.5% | UO-31 renal 71.6% | TK-10 renal 134% | ACHN renal 95.7% | CAKI-1 renal 93.2% | A498 renal 92.7% | HL-60(TB) leukemia 102% | CCRF-CEM leukemia 86.9% | MOLT-4 leukemia 98.7% | SR leukemia 99% | RPMI-8226 leukemia 95.2% | OVCAR-8 ovarian 115% | OVCAR-5 ovarian 110% | OVCAR-4 ovarian 116% | SK-OV-3 ovarian 99.8% | IGROV1 ovarian 89.8% | OVCAR-3 ovarian 116% | HS 578T breast 84.1%

CC(Cl)CN(CC(C)Cl)C(=O)c1ccccc1 (stereo not given)
inactive: SK-MEL-2 melanoma 123% | EKVX NSCLC 112% | SN12C renal 107% | UO-31 renal 81.8% | TK-10 renal 103% | ACHN renal 105% | CAKI-1 renal 103% | A498 renal 96.8% | HL-60(TB) leukemia 66.2% | CCRF-CEM leukemia 45.9% | MOLT-4 leukemia 95.3% | SR leukemia 90.3% | RPMI-8226 leukemia 104% | OVCAR-8 ovarian 108% | OVCAR-5 ovarian 109% | OVCAR-4 ovarian 63.9% | SK-OV-3 ovarian 114% | IGROV1 ovarian 107% | OVCAR-3 ovarian 107% | HS 578T breast 90.5%

CCc1cc(O)c([N+](=O)[O-])c(C)c1[N+](=O)[O-]
inactive: SK-MEL-2 melanoma 121% | EKVX NSCLC 106% | SN12C renal 109% | UO-31 renal 83.4% | TK-10 renal 106% | ACHN renal 100% | CAKI-1 renal 93.5% | A498 renal 128% | HL-60(TB) leukemia 69% | CCRF-CEM leukemia 100% | MOLT-4 leukemia 105% | SR leukemia 129% | RPMI-8226 leukemia 101% | OVCAR-8 ovarian 98.5% | OVCAR-5 ovarian 104% | OVCAR-4 ovarian 123% | SK-OV-3 ovarian 108% | IGROV1 ovarian 103% | OVCAR-3 ovarian 116% | HS 578T breast 106%

N/C(=N\N=C\c1ccc([N+](=O)[O-])o1)N[N+](=O)[O-]
inactive: SK-MEL-2 melanoma 92.9% | EKVX NSCLC 97.1% | SN12C renal 121% | UO-31 renal 91.9% | TK-10 renal 124% | ACHN renal 92% | CAKI-1 renal 102% | A498 renal 70.8% | HL-60(TB) leukemia 93.6% | CCRF-CEM leukemia 86.8% | MOLT-4 leukemia 88.2% | SR leukemia 91.6% | RPMI-8226 leukemia 86.7% | OVCAR-8 ovarian 90.3% | OVCAR-5 ovarian 113% | OVCAR-4 ovarian 103% | SK-OV-3 ovarian 96.5% | IGROV1 ovarian 108% | OVCAR-3 ovarian 103% | HS 578T breast 99.7%

O=[N+]([O-])c1cc(Oc2ccc([N+](=O)[O-])cc2C(F)(F)F)cc([N+](=O)[O-])c1
inactive: SK-MEL-2 melanoma 93.1% | EKVX NSCLC 109% | SN12C renal 88.7% | UO-31 renal 65.6% | TK-10 renal 114% | ACHN renal 108% | CAKI-1 renal 92.9% | A498 renal 62.4% | HL-60(TB) leukemia 51.8% | CCRF-CEM leukemia 90.8% | MOLT-4 leukemia 67.1% | SR leukemia 94.4% | RPMI-8226 leukemia 91.8% | OVCAR-8 ovarian 96.7% | OVCAR-5 ovarian 114% | OVCAR-4 ovarian 79.3% | SK-OV-3 ovarian 107% | IGROV1 ovarian 98.7% | OVCAR-3 ovarian 90.9% | HS 578T breast 104%

C[As](=O)(O)c1cccc(C(=O)O)c1
inactive: SK-MEL-2 melanoma 106% | EKVX NSCLC 96.1% | SN12C renal 107% | UO-31 renal 75.2% | TK-10 renal 107% | ACHN renal 98.1% | CAKI-1 renal 97.7% | A498 renal 102% | HL-60(TB) leukemia 64.5% | CCRF-CEM leukemia 99.6% | MOLT-4 leukemia 102% | SR leukemia 101% | RPMI-8226 leukemia 96.9% | OVCAR-8 ovarian 100% | OVCAR-5 ovarian 97.6% | OVCAR-4 ovarian 95.7% | SK-OV-3 ovarian 102% | IGROV1 ovarian 98.6% | OVCAR-3 ovarian 112% | HS 578T breast 116%

COc1cc([N+](=O)[O-])c([N+](=O)[O-])cc1N
inactive: SK-MEL-2 melanoma 107% | EKVX NSCLC 92.6% | SN12C renal 101% | UO-31 renal 95.1% | TK-10 renal 98.4% | ACHN renal 102% | CAKI-1 renal 105% | A498 renal 91.8% | HL-60(TB) leukemia 78% | CCRF-CEM leukemia 88.5% | MOLT-4 leukemia 87.8% | SR leukemia 100% | RPMI-8226 leukemia 83.6% | OVCAR-8 ovarian 101% | OVCAR-5 ovarian 98.8% | OVCAR-4 ovarian 115% | SK-OV-3 ovarian 100% | IGROV1 ovarian 101% | OVCAR-3 ovarian 115% | HS 578T breast 101%
